Measured values: ChEMBL document CHEMBL1128099, “Morphinan cyclic imines and pyrrolidines containing a constrained phenyl group: High affinity opioid agonists” (1995)

Amino acid sequences for entries named in this document (tags omitted).
UniProt P41144, whole entry: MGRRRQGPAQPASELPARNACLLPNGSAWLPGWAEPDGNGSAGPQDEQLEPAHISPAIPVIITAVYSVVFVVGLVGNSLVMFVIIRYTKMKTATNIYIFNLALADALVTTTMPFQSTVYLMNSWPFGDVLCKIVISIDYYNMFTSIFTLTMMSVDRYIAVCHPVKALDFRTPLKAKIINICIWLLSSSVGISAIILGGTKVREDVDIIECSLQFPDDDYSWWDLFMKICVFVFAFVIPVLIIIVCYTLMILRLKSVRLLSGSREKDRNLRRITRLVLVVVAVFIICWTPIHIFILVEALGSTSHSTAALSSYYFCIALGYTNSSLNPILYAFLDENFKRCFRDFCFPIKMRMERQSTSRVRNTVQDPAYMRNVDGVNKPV
UniProt P97266, whole entry: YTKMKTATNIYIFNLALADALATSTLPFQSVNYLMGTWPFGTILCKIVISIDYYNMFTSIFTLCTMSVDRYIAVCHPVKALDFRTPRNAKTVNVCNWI

What was measured:
[1] = molecular target: T1, Kappa-type opioid receptor (Cavia porcellus, UniProt P41144); assay: Compound was tested for its ability to displace bremazocine from Opioid receptor kappa 2 in hartley guinea pig brain membrane
[2] = molecular target: T1, Kappa-type opioid receptor; assay: Compound was tested for its ability to displace [3H]U-69593 from Opioid receptor kappa 1 in hartley guinea pig brain membrane in the presence of 100 nM of U-69,593
[3] = molecular target: Mu-type opioid receptor (Cavia porcellus, UniProt P97266); assay: Compound was tested for its ability to displace [3H]DAMGO from mu opioid receptor in hartley guinea pig brain membrane in the presence of 100 nM of DAMGO

CO[C@]12C=C[C@]34C[C@@]1(C)[C@H](c1ccccc1)N(C)[C@H]2C31CCN(C)C4Cc2ccc(O)cc21
IC50 [1]: 9.2 nM
IC50 [2]: 0.52 nM

COc1ccc2c(c1O)C13CCN(C)C(C2)C12C=CC1(OC)[C@H]3N=C(c3ccccc3)[C@]1(C)C2
IC50 [1]: 320 nM
IC50 [2]: 16.8 nM

CO[C@@]12C=C[C@]34C[C@]1(C)[C@@H](c1ccccc1)N[C@H]2[C@@]31CCN(C)[C@@H]4Cc2ccc(O)cc21
IC50 [1]: 2.6 nM
IC50 [2]: 0.26 nM

COc1ccc2c(c1OC)[C@]13CC[N+](C)(C)[C@H](C2)[C@]12C=C[C@]1(OC)[C@H]3N=C(c3ccccc3)[C@]1(C)C2
IC50 [1]: 380 nM
IC50 [3]: 0.56 nM
IC50 [2]: 4.67 nM

CCOc1ccc(C2=N[C@H]3C45CCN(C)C(Cc6ccc(OC)c(O)c64)[C@]54C=C[C@@]3(OC)[C@@]2(C)C4)cc1
IC50 [1]: 331 nM
IC50 [2]: 96.9 nM

COC12C=CC34C[C@@]1(C)C(c1ccccc1)=N[C@H]2C31CCN(C)C4Cc2ccc(O)cc21
IC50 [1]: 6.2 nM
IC50 [2]: 0.52 nM
